Laboratory results taken from PubChem BioAssay AID1259251 (The Scripps Research Institute Molecular Screening Center, 2017).
The list shows a part of the results, in another mix than the full data. Some salts or complexes appear as unconnected parts, following the source record. Activity calls are given as the source filed them. No stated cut-off is given here; in the data, active means inhibition above about 43%; inactive means the rest.

Chains of the proteins cited; added tags and fusions are not shown.
UniProt O75385, whole entry: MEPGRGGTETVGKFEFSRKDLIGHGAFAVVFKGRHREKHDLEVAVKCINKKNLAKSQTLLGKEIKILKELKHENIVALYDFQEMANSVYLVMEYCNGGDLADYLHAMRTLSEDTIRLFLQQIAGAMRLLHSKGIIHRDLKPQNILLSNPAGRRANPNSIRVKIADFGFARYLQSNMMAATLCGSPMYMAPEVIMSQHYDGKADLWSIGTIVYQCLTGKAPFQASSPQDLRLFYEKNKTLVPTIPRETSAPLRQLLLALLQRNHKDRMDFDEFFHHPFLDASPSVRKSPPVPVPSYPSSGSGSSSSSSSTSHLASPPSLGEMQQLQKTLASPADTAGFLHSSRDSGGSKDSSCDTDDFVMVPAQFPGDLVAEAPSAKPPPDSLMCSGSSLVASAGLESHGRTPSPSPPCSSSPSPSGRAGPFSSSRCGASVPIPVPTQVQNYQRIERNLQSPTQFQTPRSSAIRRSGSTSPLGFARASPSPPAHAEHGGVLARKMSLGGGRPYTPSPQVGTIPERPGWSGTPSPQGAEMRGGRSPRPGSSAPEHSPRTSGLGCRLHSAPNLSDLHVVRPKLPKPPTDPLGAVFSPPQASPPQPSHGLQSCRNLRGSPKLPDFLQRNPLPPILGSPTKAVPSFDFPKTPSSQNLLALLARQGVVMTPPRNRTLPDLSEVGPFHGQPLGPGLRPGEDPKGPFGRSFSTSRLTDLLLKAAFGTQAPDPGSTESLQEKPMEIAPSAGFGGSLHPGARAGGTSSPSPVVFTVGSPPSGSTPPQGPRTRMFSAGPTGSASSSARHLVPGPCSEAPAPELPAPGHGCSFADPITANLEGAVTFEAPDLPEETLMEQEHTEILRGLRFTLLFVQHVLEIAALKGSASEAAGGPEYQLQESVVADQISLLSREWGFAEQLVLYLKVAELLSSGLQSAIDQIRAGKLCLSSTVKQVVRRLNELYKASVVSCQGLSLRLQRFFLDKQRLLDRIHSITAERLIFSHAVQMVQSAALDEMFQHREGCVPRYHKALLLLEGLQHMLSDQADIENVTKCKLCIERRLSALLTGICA

biological target: Serine/threonine-protein kinase ULK1 (Homo sapiens) (UniProt O75385); experiment: ULK1 kinase inhibitors, primary screen, biochemical, AlphaScreen (AID 1259251); conditions: AlphaScreen Atg13 phosphorylation by ULK1, luminescence; at 5.96 µM; hits give high values;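 further: 0% = median of compound wells and 100% = no enzyme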

**Q.** With O=[N+]([O-])c1cc([N+](=O)[O-])c(O)c([N+](=O)[O-])c1 as the compound, how does the inhibition read?
**A.** inactive: -7.32%

**Q.** For OCCSCCO, which inhibition is on record?
**A.** inactive: -3.84%

**Q.** Which inhibition does the source give for CN1CCCC1=C1c2cc([N+](=O)[O-])cc([N+](=O)[O-])c2-c2c1cc([N+](=O)[O-])cc2[N+](=O)[O-] here?
**A.** inactive: 18.7%

**Q.** C/C1=C2N=C(/C=C3N=C(/C(C)=C4\[N-][C@@](C)([C@@H]5N=C1[C@](C)(CCC(=O)NC[C@@H](C)OP(=O)(O)O[C@H]1[C@@H](O)[C@@H](n6cnc7cc(C)c(C)cc76)O[C@@H]1CO)[C@H]5CC(N)=O)[C@@](C)(CC(N)=O)[C@@H]4CCC(N)=O)[C@@](C)(CC(N)=O)[C@@H]\3CCC(N)=O)C(C)(C)[C@@H]/2CCC(N)=O.[C-]#N.[Co+3] was tested. Which inhibition did it give?
**A.** inactive: 33.2%

**Q.** For O=[N+]([O-])c1cnc(Nc2c([N+](=O)[O-])cc([N+](=O)[O-])cc2[N+](=O)[O-])c([N+](=O)[O-])c1, which inhibition is on record?
**A.** inactive: 4.8%
